Results from ChEMBL document CHEMBL4732158, “Bicyclic Ligand-Biased Agonists of S1P: Exploring Side Chain Modifications to Modulate the PK, PD, and Safety Profiles” (J Med Chem, 2021).

Sequences of proteins named here, by UniProt entry; tags and fusion partners are left off.
UniProt P21453, whole entry: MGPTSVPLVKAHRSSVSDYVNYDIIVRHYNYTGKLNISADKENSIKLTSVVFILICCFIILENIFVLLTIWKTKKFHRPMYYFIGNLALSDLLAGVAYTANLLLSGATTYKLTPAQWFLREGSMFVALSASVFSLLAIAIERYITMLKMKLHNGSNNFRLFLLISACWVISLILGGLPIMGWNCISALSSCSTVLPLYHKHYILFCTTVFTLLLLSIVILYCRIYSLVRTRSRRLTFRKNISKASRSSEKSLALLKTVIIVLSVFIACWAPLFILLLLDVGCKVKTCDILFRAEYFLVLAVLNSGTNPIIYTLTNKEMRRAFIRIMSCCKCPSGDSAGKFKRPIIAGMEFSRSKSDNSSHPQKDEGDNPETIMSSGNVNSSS

Assays:
[1] = molecular target: T1, Sphingosine 1-phosphate receptor 1 (Homo sapiens, UniProt P21453); experiment: Displacement of [33P]-SIP from human recombinant S1P1 expressed in CHO cell membranes measured after 45 mins by TopCount scintillation counting method relative to control; settings: Cell membrane, filed as agonist
[2] = molecular target: T1, Sphingosine 1-phosphate receptor 1; experiment: Agonist activity at human recombinant S1P1 expressed in CHO cells assessed as stimulation of ERK phosphorylation incubated for 7 mins by microplate reader analysis relative to S1P; type: cell-based; settings: filed as agonist
[3] = molecular target: T1, Sphingosine 1-phosphate receptor 1; experiment: Agonist activity at human recombinant C-terminal GFP-fused S1P1 expressed in CHO cells assessed as induction of receptor internalization incubated for 50 mins by fluorescence based confocal laser scanning microscopic analysis relative to control; type: cell-based; settings: filed as agonist

Row | Rmax [1] [%] | Rmax [2] [%] | Rmax [3] [%] | Compound
1 | 98 | 100 | 77 | COCCCCC[C@@H]1CCc2cc([C@H]3CC[C@](N)(COP(=O)(O)O)C3)ccc2C1
2 | 98 | 99 | 53 | CCOCCC[C@H]1CCc2cc([C@H]3CC[C@](N)(COP(=O)(O)O)C3)ccc2C1
